The values that follow come from PubChem BioAssay AID652154 (Broad Institute, 2013).

SMILES strings stand for the structures. The entries are a selection whose mix differs from that of the whole data set. Some salts and complexes are drawn in separate pieces, as the source files them; their charges need not balance. The source made the active and inactive calls.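 The calls were made as follows: active = mean replicate inhibition at least 60% with every replicate also reaching 60%; inconclusive = only one of the two criteria is met; inactive = mean below 60% and not all replicates reaching 60%.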

A short description of the assay: PAX8 transcriptional activity inhibition in RMG-I – RMG-I cells, luciferase, single concentration, primary screen (AID 652154).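 Also: luciferase light reporting Pax8 driven TPO promoter activity; plate controls were median of neutral control wells for no effect and mitoxantrone controls for full effect.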 The following applies: RMG-I TPO-luciferase reporter, SteadyGlo, 24 h; at 12.6 µM; hits give high values. (In general: In a reporter assay the amount or activity of a reporter protein is the signal.)
One may read the inhibition as the drop in the measured response relative to a control, in per cent. With `Nc1ccc2c(ccc3cccnc32)n1.O=[N+]([O-])c1cc([N+](=O)[O-])c(O)c([N+](=O)[O-])c1`, the inhibition was inactive: -9.12%.
Consider `CCOC(=O)c1ccc(NP(C)(=O)Oc2ccc(Cl)cc2)cc1` (centres undefined), for which the inhibition was active: 129%.
As to `COc1ccccc1OP(C)(=O)Nc1ccccc1Br` (centres undefined), the inhibition is inactive: -1.17%.
As for `CN(C)C(=O)c1c([N+](=O)[O-])cc([N+](=O)[O-])cc1[N+](=O)[O-]`, the inhibition was inactive: -17.5%.
`COc1ccc(OP(C)(=O)Nc2ccc(Br)cc2)cc1` (centres undefined): the inhibition was inactive: 8.39%.
Turning to `CCN(CC)CC(O)COC(=O)C(O)(c1ccccc1)C1CCCCC1` (centres undefined), the inhibition is inactive: 18.2%.
For `CCc1ccc(OP(C)(=O)Nc2cccnc2)cc1` (centres undefined), the inhibition is inactive: 8.15%.
The same measure for `O=C(OCCCN1CCCC1)C(O)(c1ccccc1)C1CCCCC1` (centres undefined): inactive: -16.2%; for `COc1ccccc1OP(C)(=O)Nc1c(C)n(C)n(-c2ccccc2)c1=O` (centres undefined): inactive: 4.02%; for `O=[N+]([O-])c1cc([N+](=O)[O-])c(Nc2ccccn2)c([N+](=O)[O-])c1`: inactive: 47%.
The same measure for `Cc1c(NP(C)(=O)Oc2ccc(C(C)C)cc2)c(=O)n(-c2ccccc2)n1C` (centres undefined): inactive: 2.36%.
Take `COc1ccccc1OP(C)(=O)Nc1ccc(C)cc1C` (centres undefined): the inhibition is inactive: 15.3%.
In the case of `COc1ccccc1OP(C)(=O)Nc1ccc(Br)cc1` (centres undefined), the inhibition was inactive: 16.9%.
With `CP(=O)(OCCOc1ccccc1)OCCOc1ccccc1` the figure was inactive: -4.08%.
In the case of `CCCCCCCCCCCCCCCC1C[N+](C)(C)CCOP(C)(=O)O1` (centres undefined), the inhibition is active: 115%.
With `CP(=O)(Nc1ccc(Cl)cc1Cl)Oc1ccccc1` (centres undefined) the figure was inactive: 9.43%.
As for `Cc1cc(C)cc(OP(C)(=O)Nc2cccc(C(F)(F)F)c2)c1` (centres undefined), the inhibition was inactive: 2.47%.
`O=C1C(O)=C([N+](=O)[O-])C(=O)C(O)=C1[N+](=O)[O-]`: the inhibition was inactive: -4.86%.
For `COc1ccc(OP(C)(=O)Nc2ccccc2Br)cc1` (centres undefined), the inhibition is inactive: 10.3%.
Turning to `Cc1c([N+](=O)[O-])cc([N+](=O)[O-])c(Br)c1[N+](=O)[O-]`, the inhibition is inactive: 4.08%.
As for `CCCCCOc1ccc(NP(C)(=O)Oc2ccc(Cl)cc2Cl)cc1` (centres undefined), the inhibition is inactive: -8.97%.
`O=[N+]([O-])c1cc([N+](=O)[O-])c(OC2CCCCC2O)c([N+](=O)[O-])c1` (centres undefined): the inhibition is inactive: -14.5%.
With `CCN(CC)CCCNc1ccccc1[N+](=O)[O-].O=[N+]([O-])c1cc([N+](=O)[O-])c(O)c([N+](=O)[O-])c1`, the inhibition was inactive: -35%.
With `COc1ccc(OP(C)(=O)Nc2ccc(SC(F)(F)F)cc2)cc1` (centres undefined), the inhibition is inactive: 40%.
Consider `CCOC(=O)c1ccc(NP(C)(=O)Oc2ccc(F)cc2)cc1` (centres undefined), for which the inhibition was inactive: -9.52%.
Turning to `O=C(OCCN1CCN(CCOCc2ccccc2)CC1)C(O)(c1ccccc1)c1ccccc1`, the inhibition was inactive: -2.86%.
The same measure for `O=C(OC1CN2CCC1CC2)c1ccc([N+](=O)[O-])cc1` (centres undefined): inactive: 6.19%; for `COc1ccc2c(c1O)-c1c(O)c(OC)cc3c1[C@H](C2)[N+](C)(C)CC3.O=[N+]([O-])c1cc([N+](=O)[O-])c([O-])c([N+](=O)[O-])c1[O-]`: inactive: -22.8%.
For `O=[N+]([O-])c1cc([N+](=O)[O-])c(Nc2ccc(Cl)cc2)c([N+](=O)[O-])c1`, the inhibition is active: 93%.
The same measure for `CC(C)c1ccc(OP(C)(=O)Nc2ccc(SC(F)(F)F)cc2)cc1` (centres undefined): inactive: 18.4%.
With `O=[N+]([O-])c1cc([N+](=O)[O-])c(C(F)(F)F)c([N+](=O)[O-])c1O` the figure was inactive: -5.5%; with `CP(=O)(Nc1ccc(SC(F)(F)F)cc1)Oc1ccc(F)cc1` (centres undefined), inactive: 0.176%.
`CCOP(C)(=S)SCC(=O)NC(C)(CC)C(=O)O` (centres undefined): the inhibition was inactive: 1.73%.
On to `Cc1cc(-c2cccc3ccccc23)c(C)cn1.O=[N+]([O-])c1cc([N+](=O)[O-])c(O)c([N+](=O)[O-])c1`, for which the inhibition was inactive: 8.08%.
As for `O=[N+]([O-])c1cc([N+](=O)[O-])c(NCC2CCS(=O)(=O)C2)c([N+](=O)[O-])c1` (centres undefined), the inhibition is active: 91.6%.
With `O=[N+]([O-])c1ccc(OP2(=O)COCCO2)cc1` (centres undefined), the inhibition was inactive: 14.1%.
As for `Cc1c(C(c2ccc3c(c2)OCO3)c2c(C)n(C)n(-c3ccccc3)c2=O)c(=O)n(-c2ccccc2)n1C.O=[N+]([O-])c1cc([N+](=O)[O-])c(O)c([N+](=O)[O-])c1`, the inhibition is inactive: -7.44%.
Take `COc1ccc(OP(C)(=O)Nc2cccc(Br)c2)cc1` (centres undefined): the inhibition is inactive: 5.11%.
`COc1ccc(NP(C)(=O)Oc2ccccc2OC)cc1` (centres undefined): the inhibition was inactive: 28.6%.
Turning to `COc1ccccc1OP(C)(=O)Nc1c(C)cccc1C` (centres undefined), the inhibition is inactive: 6.57%.
Turning to `CN1CCCCC1COC(=O)C1(O)c2ccccc2CCc2ccccc21` (centres undefined), the inhibition was inactive: -0.9%.
Turning to `CP(=O)(Nc1ccc(SC(F)(F)F)cc1)Oc1ccccc1` (centres undefined), the inhibition is inactive: -1.14%.
Regarding `CCCOc1ccc(NP(C)(=O)Oc2ccc(Cl)cc2)cc1` (centres undefined), the inhibition was inactive: -19.9%.
`COc1ccc(-c2ccccn2)cc1.O=[N+]([O-])c1cc([N+](=O)[O-])c(O)c([N+](=O)[O-])c1`: the inhibition was inactive: -119%.
Consider `CCOC(=O)C(CC)C1=NC(C)(C)Cc2ccccc21.O=[N+]([O-])c1cc([N+](=O)[O-])c(O)c([N+](=O)[O-])c1` (centres undefined), for which the inhibition was inactive: 4.59%.
In the case of `O=[N+]([O-])c1cc([N+](=O)[O-])c(Nc2nnnn2CCO)c([N+](=O)[O-])c1`, the inhibition is inactive: -0.562%.
With `O=[N+]([O-])c1cc([N+](=O)[O-])c(-c2cnn(-c3ccccc3)c2)c([N+](=O)[O-])c1` the figure was inactive: 4.46%.
Regarding `Cc1nc2ccc3ccccc3c2s1.O=[N+]([O-])c1cc([N+](=O)[O-])c(O)c([N+](=O)[O-])c1`, the inhibition is inactive: -58.6%.
Regarding `O=[N+]([O-])c1cc([N+](=O)[O-])c(-n2nnc3ccccc32)c([N+](=O)[O-])c1`, the inhibition is inactive: -51.2%.
Take `CN(Cc1cccnc1)C(=O)COc1ccc(Cl)c(Cl)c1.O=[N+]([O-])c1cc([N+](=O)[O-])c(O)c([N+](=O)[O-])c1`: the inhibition was inactive: -3.9%.
Take `CP(=O)(Nc1cccc(Br)c1)Oc1ccccc1` (centres undefined): the inhibition was inactive: 24%.
For the compound `COc1ccccc1OP(C)(=O)Nc1cccc(Br)c1` (centres undefined), the inhibition was inactive: 11.4%.
On to `CCOC(=O)c1ccc(NP(C)(=O)Oc2cc(C)cc(C)c2)cc1` (centres undefined), for which the inhibition is inactive: 17.5%.
With `CC1=NCCc2c1[nH]c1ccccc21.O=[N+]([O-])c1cc([N+](=O)[O-])c(O)c([N+](=O)[O-])c1`, the inhibition is inactive: -9.43%.
With `O=C(O)c1cccc(Nc2c([N+](=O)[O-])cc([N+](=O)[O-])cc2[N+](=O)[O-])c1`, the inhibition is inactive: -1.05%.
Take `CCOC(=O)c1ccc(NP(C)(=O)Oc2ccccc2)cc1` (centres undefined): the inhibition is inactive: -7.97%.
Turning to `Cc1ccc(NP(C)(=O)Oc2ccccc2)c(C)c1` (centres undefined), the inhibition was inactive: 17.2%.
Consider `COc1ccc(OP(C)(=O)Nc2cccc(F)c2)cc1` (centres undefined), for which the inhibition is inactive: 2.12%.
In the case of `COc1ccccc1OP(C)(=O)Nc1cc(Cl)ccc1C` (centres undefined), the inhibition was inactive: 14.4%.
Take `Cc1cc(C)cc(OP(C)(N)=O)c1` (centres undefined): the inhibition is inactive: 12.5%.
With `O=[N+]([O-])c1cc([N+](=O)[O-])c(Nc2cccnc2)c([N+](=O)[O-])c1` the figure was inactive: 35.9%; with `Cc1cccc(C)c1OP(C)(N)=O` (centres undefined), inactive: 2.07%.
For `CC(C)(C)c1ccc(OP(C)(=O)Nc2ccc(SC(F)(F)F)cc2)cc1` (centres undefined), the inhibition is inactive: -0.397%.
The same measure for `O=[N+]([O-])c1ccc2c(c1)C=Nc1ccccc1O2`: inactive: -2.08%.
Take `COc1ccccc1-c1ccccn1.O=[N+]([O-])c1cc([N+](=O)[O-])c(O)c([N+](=O)[O-])c1`: the inhibition was inactive: 4.76%.
Regarding `CCN(CC)CCCOC(=O)C(O)(c1ccccc1)c1ccccc1`, the inhibition was inactive: -24.4%.
With `CCOC(=O)c1ccc(NP(C)(=O)Oc2ccc(OC)cc2)cc1` (centres undefined), the inhibition is inactive: 31.2%.
On to `O=[N+]([O-])c1cc([N+](=O)[O-])c(O)c([N+](=O)[O-])c1.c1ccc(Oc2ccncc2)cc1`, for which the inhibition was inactive: 3.1%.
As for `CP(=O)(Oc1ccccc1)OC(c1ccccc1)C(F)(F)F` (centres undefined), the inhibition was inactive: -3.53%.
In the case of `Cc1cccc(C)c1OP(C)(=O)Nc1ccc(SC(F)(F)F)cc1` (centres undefined), the inhibition is inactive: 0.113%.
For the compound `CP(=O)(Nc1ccc(SC(F)(F)F)cc1)Oc1ccc(Cl)cc1` (centres undefined), the inhibition is inactive: 13.8%.
With `CCc1ccc(OP(C)(=O)N2CCN(c3ccc([N+](=O)[O-])cc3)CC2)cc1` (centres undefined), the inhibition was inactive: 0.343%.
On to `COc1ccccc1OP(C)(=O)Nc1ccccc1` (centres undefined), for which the inhibition is inactive: 16.8%.
With `CP(=O)(Nc1ccccc1Br)Oc1ccccc1` (centres undefined) the figure was inactive: 29.9%.
